# From US12162865B2, “Methods of treating cancer” (Epizyme, Inc., priority 2012, dated 2024)
# Experiments:
# [1] = test system: SMARCB1 regulated genes in G401 cells; experiment: Gene expression analysis (qPCR), G401 cells; format: cell-based; details: 1 μM, up to 7 days
# [2] = test system: H3K27 methylation in OCI-LY19 EZH2 wild-type lymphoma cells
# [3] = test system: subcutaneous G401 xenografts; details: tumors harvested on day 21; all doses (Example 1)
# [4] = test system: H3K27Me3 in PBMCs, bone marrow and skin
structure (smiles),measurement,setting,value
"CCN(c1cc(-c2ccc(CN3CCOCC3)cc2)cc(C(=O)NCc2c(C)cc(C)[nH]c2=O)c1C)C1CCOCC1 [Compound A, N-((4,6-dimethyl-2-oxo-1,2-dihydropyridin-3-yl)methyl)-5-(ethyl (tetrahydro-2H-pyran-4-yl)amino)-4-methyl-4′-(morpholinomethyl)-[1,1′-biphenyl]-3-carboxamide]","expression of hedgehog pathway genes, MYC and EZH2",[1],reduced
same,histone methyl marks affected,"[2]; OCI-LY19, 2.7 μM, 4 days","the only methyl marks affected were the H3K27Me1, H3K27Me2 and H3K27Me3"
same,H3K27 acetylation,[2]; incubation with Compound A,increase in H3K27 acetylation
same,EZH2 target inhibition in tumors,[3],strong EZH2 target inhibition
same,H3K27Me3 positive cells in epidermis of skin (IHC),"[4]; 100, 300, or 1000 mg/kg oral",dose dependent reduction in H3K27Me3 positive cells
same,tolerability,"[4]; females, 1000 mg/kg group, euthanized on day 23",tolerability issues
same,plasma levels,"[4]; male and female rats, 100, 300, or 1000 mg/kg oral",increased dose-dependently
